Assay results taken from ChEMBL document CHEMBL5370584, “Reprogramming Energy Metabolism with Synthesized PDK Inhibitors Based on Dichloroacetate Derivatives and Targeted Delivery Systems for Enhanced Cancer Therapy” (J Med Chem, 2023).
Active and inactive are the calls of the source.

The chains behind the UniProt entries cited, without tags or fusion partners.
UniProt Q922H2, whole entry, looked up: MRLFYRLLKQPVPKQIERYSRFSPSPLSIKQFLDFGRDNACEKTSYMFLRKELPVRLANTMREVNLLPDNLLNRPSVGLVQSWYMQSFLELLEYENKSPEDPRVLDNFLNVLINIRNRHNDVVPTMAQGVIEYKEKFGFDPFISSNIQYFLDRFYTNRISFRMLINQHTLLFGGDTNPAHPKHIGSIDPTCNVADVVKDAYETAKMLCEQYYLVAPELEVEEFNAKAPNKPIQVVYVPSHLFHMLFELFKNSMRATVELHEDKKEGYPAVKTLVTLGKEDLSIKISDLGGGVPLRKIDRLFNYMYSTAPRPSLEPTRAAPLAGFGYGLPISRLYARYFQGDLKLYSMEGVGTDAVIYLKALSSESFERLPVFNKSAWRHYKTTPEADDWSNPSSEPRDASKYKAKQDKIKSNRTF
UniProt Q8BFP9, whole entry, looked up: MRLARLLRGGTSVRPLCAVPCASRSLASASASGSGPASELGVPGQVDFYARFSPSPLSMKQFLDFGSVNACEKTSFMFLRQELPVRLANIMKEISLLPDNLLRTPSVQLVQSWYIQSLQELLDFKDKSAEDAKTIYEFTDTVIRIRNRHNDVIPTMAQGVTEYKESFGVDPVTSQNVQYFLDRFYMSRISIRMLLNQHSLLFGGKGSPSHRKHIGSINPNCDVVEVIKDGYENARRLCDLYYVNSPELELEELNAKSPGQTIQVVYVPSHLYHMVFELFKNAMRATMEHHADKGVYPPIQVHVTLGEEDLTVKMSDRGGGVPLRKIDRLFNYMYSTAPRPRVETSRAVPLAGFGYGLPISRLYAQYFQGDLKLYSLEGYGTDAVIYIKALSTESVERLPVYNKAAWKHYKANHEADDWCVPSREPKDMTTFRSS
UniProt O70571, whole entry, looked up: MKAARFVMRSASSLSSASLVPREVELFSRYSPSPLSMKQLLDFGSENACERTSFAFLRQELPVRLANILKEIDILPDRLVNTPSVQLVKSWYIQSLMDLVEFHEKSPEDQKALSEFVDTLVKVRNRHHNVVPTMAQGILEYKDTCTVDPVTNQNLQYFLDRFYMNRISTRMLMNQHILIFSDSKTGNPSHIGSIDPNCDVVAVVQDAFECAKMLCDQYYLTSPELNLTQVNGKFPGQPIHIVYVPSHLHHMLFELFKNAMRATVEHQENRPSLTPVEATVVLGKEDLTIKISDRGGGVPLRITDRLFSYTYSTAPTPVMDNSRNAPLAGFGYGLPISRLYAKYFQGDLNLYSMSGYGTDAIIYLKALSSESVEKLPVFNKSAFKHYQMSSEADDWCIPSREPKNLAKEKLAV

Legend:
[1] = tested on: 4T1; assay: Inhibition of PDK4 expression in mouse 4T1 cells at 4 uM incubated for 24 hrs by Western blot analysis; format: functional, cell-based
[2] = target: [Pyruvate dehydrogenase (acetyl-transferring)] kinase isozyme 3, mitochondrial (Mus musculus) (UniProt Q922H2); assay: Inhibition of PDK3 transcription in mouse 4T1 cells at 4 uM incubated for 24 hrs by qPCR analysis; format: cell-based
[3] = tested on: 4T1; assay: Inhibition of PDK1 expression in mouse 4T1 cells at 4 uM incubated for 24 hrs by Western blot analysis; format: functional, cell-based
[4] = target: [Pyruvate dehydrogenase (acetyl-transferring)] kinase isozyme 2, mitochondrial (Mus musculus) (UniProt Q9JK42); assay: Inhibition of PDK2 transcription in mouse 4T1 cells at 4 uM incubated for 24 hrs by qPCR analysis; format: cell-based
[5] = target: [Pyruvate dehydrogenase (acetyl-transferring)] kinase isozyme 1, mitochondrial (Mus musculus) (UniProt Q8BFP9); assay: Inhibition of PDK1 transcription in mouse 4T1 cells at 4 uM incubated for 24 hrs by qPCR analysis; format: cell-based
[6] = target: [Pyruvate dehydrogenase (acetyl-transferring)] kinase isozyme 4, mitochondrial (Mus musculus) (UniProt O70571); assay: Inhibition of PDK4 transcription in mouse 4T1 cells at 4 uM incubated for 24 hrs by qPCR analysis; format: cell-based
[7] = tested on: 4T1; assay: Inhibition of glycolysis in mouse 4T1 cell lysates assessed as reduction in extracellular acidification rate at 2 uM measured after 6 hrs; format: functional, cell-based

Measured: inhibition

Nc1ccc([As]2SCCCS2)cc1
inactive: all assays above
